According to ChEMBL document CHEMBL1143257, “Structure-activity relationships of novel HIV-1 protease inhibitors containing the 3-amino-2-chlorobenzoyl-allophenylnorstatine structure” (Bioorg Med Chem, 2008):

Target: Protease (Human immunodeficiency virus 1, UniProt Q9YQ12)
Assay: Inhibition of HIV1 protease

SMILES	Ki
CC(C)(C)NC(=O)[C@@H]1C[C@@H]2CCCC[C@@H]2CN1C[C@@H](O)[C@H](Cc1ccccc1)NC(=O)[C@H](CC(N)=O)NC(=O)c1ccc2ccccc2n1	0.138 nM
CC(C)(C)NC(=O)[C@@H]1CN(Cc2cccnc2)CCN1C[C@@H](O)C[C@@H](Cc1ccccc1)C(=O)N[C@H]1c2ccccc2C[C@H]1O	0.739 nM
Cc1cccc(C)c1OCC(=O)N[C@@H](Cc1ccccc1)[C@@H](O)C[C@H](Cc1ccccc1)NC(=O)[C@H](C(C)C)N1CCCNC1=O [LOPINAVIR]	0.016 nM
